Literature values, collected in US6921545B2 (priority 2001, dated 2005).

Test system: insect eggs
Details: from DE 197 09 914; cited from earlier work

Substance: hydrogen phosphide
- minimum concentration for achieving an ovicidal action: 50 ppm
